Test results reported in PubChem BioAssay AID2148 (The Scripps Research Institute Molecular Screening Center, 2009).
This is a selection; strong and weak results do not stand in their true shares. Activity calls are given as the source filed them. Rule as the data show it: active = inhibition above about 22%; inactive = the rest.

Biological target: Melanin-concentrating hormone receptor 1 (Homo sapiens) (UniProt Q99705)
Test: antagonism of human MCHR1 receptor – cell-based, fluorescence, counter-screen for GPR7 antagonist project (AID 2148);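 also: 0% = vehicle with agonist and 100% = vehicle without agonist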
Settings: MCHR1-expressing cells, fluorescence antagonist assay; at 4.4 µM; stronger effect = higher value

| SMILES | inhibition |
| --- | --- |
| O=C(O)c1cccc(Nc2c([N+](=O)[O-])cc([N+](=O)[O-])cc2[N+](=O)[O-])c1 | inactive: -10.1% |
| CCCOc1ccc(NP(C)(=O)Oc2ccc(Cl)cc2)cc1 (configuration not stated) | inactive: 6.65% |
